Measured values from article PMC6437697 (Journal of Medicinal Chemistry, 2019).

Assay: in vitro
Conditions: human

**Q.** With `CC(C)c1nc(-c2ccc(NC(=O)Nc3cccc(C(F)(F)F)c3)c3ccccc23)c2c(N)nccn12` [KIRA3, reference compound] as the compound, how does the pEC50 read?
**A.** < 4.31

pEC50: −log10 of the molar value.
